Reference: patent US20230106511A1, “PBP3 BINDING BICYCLIC PEPTIDE LIGANDS” (priority 2020, published 2023)

T1: PBP3 of E. coli (E. coli), P0AD68
T1 chain: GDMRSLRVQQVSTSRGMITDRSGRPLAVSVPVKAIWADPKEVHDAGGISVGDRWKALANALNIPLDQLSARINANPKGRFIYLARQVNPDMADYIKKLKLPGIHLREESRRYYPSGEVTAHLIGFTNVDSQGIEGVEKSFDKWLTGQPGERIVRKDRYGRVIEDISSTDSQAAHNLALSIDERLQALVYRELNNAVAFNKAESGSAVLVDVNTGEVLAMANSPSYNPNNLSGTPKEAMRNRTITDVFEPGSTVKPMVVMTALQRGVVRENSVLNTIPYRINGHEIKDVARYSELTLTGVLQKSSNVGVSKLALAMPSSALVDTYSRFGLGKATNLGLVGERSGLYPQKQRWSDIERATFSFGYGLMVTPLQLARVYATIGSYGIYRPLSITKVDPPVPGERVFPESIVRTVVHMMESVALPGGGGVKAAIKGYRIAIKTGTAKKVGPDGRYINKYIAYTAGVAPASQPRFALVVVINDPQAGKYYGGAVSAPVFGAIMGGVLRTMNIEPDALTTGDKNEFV

B1: BCY13763 (peptide)
peptide: ACSFPKCPWVENCKVD
modifications: not checked
B2: BCY13766 (peptide)
peptide: ACRFPKCPWVEGCA
modifications: not checked
B3: BCY13965 (peptide)
peptide: ACSFPHCPWVEGCA
modifications: not checked
B4: BCY13663 (peptide)
peptide: ACSFPKCPWVAGCA
modifications: not checked
B5: BCY13756 (peptide)
peptide: ACYFPKCPWVEGCA
modifications: not checked
B6: BCY13973 (peptide)
peptide: ACWFPGCPWVEHCA
modifications: not checked
B7: BCY13962 (peptide)
peptide: ACVFPKCPWVEGCA
modifications: not checked
B8: BCY13975 (peptide)
peptide: ACRFPDCPWVEHCA
modifications: not checked
B9: BCY13758 (peptide)
peptide: ACSFPKCPWVEHCA
modifications: not checked
B10: BCY13658 (peptide)
peptide: ACSFAKCPWVEGCA
modifications: not checked
B11: BCY13747 (peptide)
peptide: ACKFPVCPWVEYCA
modifications: not checked
B12: BCY13967 (peptide)
peptide: ACEYPKCPWVEGCA
modifications: not checked
B13: BCY13968 (peptide)
peptide: ACSFPLCPWVEGCA
modifications: not checked
B14: BCY13755 (peptide)
peptide: ACEFPKCPWVEGCA
modifications: not checked
B15: BCY13751 (peptide)
peptide: ACFFPQCPWVEGCA
modifications: not checked
B16: BCY13978 (peptide)
peptide: ACNFPECPWVEHCA
modifications: not checked
B17: BCY13750 (peptide)
peptide: ACLFPGCPWVEHCA
modifications: not checked
B18: BCY13980 (peptide)
peptide: ACVFPTCPWVEHCA
modifications: not checked
B19: BCY13754 (peptide)
peptide: ACHFPKCPWVEGCA
modifications: not checked
B20: BCY13971 (peptide)
peptide: ACIFPKCPWVEGCA
modifications: not checked
B21: BCY13953 (peptide)
peptide: ACSFPACPWVEGCA
modifications: not checked
B22: BCY13966 (peptide)
peptide: ACHYPKCPWVEGCA
modifications: not checked
B23: BCY13981 (peptide)
peptide: ACYFPGCPWVENCA
modifications: not checked
B24: BCY13970 (peptide)
peptide: ACQFPGCPWVEFCA
modifications: not checked
B25: BCY13767 (peptide)
peptide: ACSFPICPWVEGCA
modifications: not checked
B26: BCY13969 (peptide)
peptide: ACAFPHCPWVEFCA
modifications: not checked
B27: BCY13657 (peptide)
peptide: ACSAPKCPWVEGCA
modifications: not checked
B28: BCY13761 (peptide)
peptide: SGHCSFPKCPWVEGCA
modifications: not checked
B29: BCY13227 (peptide)
peptide: ACSFPMCPWVENCA
modifications: not checked
B30: BCY13759 (peptide)
peptide: ESWCTFPKCPWVEGCA
modifications: not checked
B31: BCY13660 (peptide)
peptide: ACSFPKCAWVEGCA
modifications: not checked
B32: BCY13952 (peptide)
peptide: ACSFAKCPWVEGCA
modifications: not checked
B33: BCY13976 (peptide)
peptide: ACHFPTCPWVEYCA
modifications: not checked
B34: BCY13963 (peptide)
peptide: ACTFPKCPWVEGCA
modifications: not checked
B35: BCY13748 (peptide)
peptide: ACHFPTCPWVEWCA
modifications: not checked
B36: BCY13753 (peptide)
peptide: ACHFPVCPWVENCA
modifications: not checked
B37: BCY13977 (peptide)
peptide: ACVFPACPWVEYCA
modifications: not checked
B38: BCY13769 (peptide)
peptide: ACIYPKCPWVEGCA
modifications: not checked
B39: BCY13979 (peptide)
peptide: ACRFPNCPWVEHCA
modifications: not checked
B40: BCY13760 (peptide)
peptide: EDRCHFPKCPWVEGCA
modifications: not checked
B41: BCY13961 (peptide)
peptide: ACSFPTCPWVEGCA
modifications: not checked
B42: BCY13765 (peptide)
peptide: ACYYPKCPWVEGCA
modifications: not checked
B43: BCY13757 (peptide)
peptide: ACSYPKCPWVEGCA
modifications: not checked
B44: BCY13420 (peptide)
peptide: ACSFPKCPWVEACA
modifications: not checked
B45: BCY13972 (peptide)
peptide: ACSFPSCPWVEHCA
modifications: not checked
B46: BCY13749 (peptide)
peptide: ACTFPACPWVEYCA
modifications: not checked
B47: BCY13762 (peptide)
peptide: ACSFPKCPWVEHCSSI
modifications: not checked

Each molecule was assayed against T2, PBP3 (E. coli) (Escherichia coli, UniProt P0AD68) (assay: Fluorescence polarisation direct binding assay). Settings: direct binding to PBP 3 (E. coli).
Protocol: Fluorescence polarisation was carried out using fluorescein-labelled peptides with unmodified PBP protein and measured using a PHERAstar FS by BMG Labtech fitted with a FP 485 520 520 optic module.
Fluorescent peptides at 10 mM in DMSO were diluted to 2.5 nM in binding buffer (10 mM HEPES, pH8, 300 mM NaCl, 2% glycerol). A two-fold dilution series of PBP protein was then prepared across 12 wells in binding buffer, with the highest concentration being 21 μM, and the lowest concentration being 17 nM.
10 μl diluted fluorescent peptide (2.5 nM) was added into 12 wells of a 384-Well NBS™ Low Volume Microplate (Fisher Scientific). 10 μl PBP dilution series was then added to the wells containing the fluorescent peptide, and 5 μl binding buffer was added to bring the total volume to 25 μl and the final concentration of peptide tracer to 1 nM. A control well lacking PBP protein was prepared with a final peptide concentration of 1 nM to a final volume of 25 μl in binding buffer. Fluorescence polarisation was measured every 5 minutes for a period of one hour at room temperature. The gain and focal height were optimised using the control well lacking protein. Wells were excited at 485 nm, and emission detection was set at 520 nm.
Data were analysed in GraphPad software to derive values for the dissociation constant. Experiments were repeated at least three times. […]

Row | Molecule | Kd [µM]
1 | [FI]-G-[Sar5]-A-(SEQ ID NO: 1)-A [BCY12820] | 0.005
2 | A-(SEQ ID NO: 1)-A-[Sar6]-[KFI] [BCY12806] | 2.1

Biological target: T1, PBP3 of E. coli (E. coli), P0AD68
Assay: FP competition, tracer BCY12820
Settings: not given

Row | Ki [µM] | Molecule
3 | 9.82 | B1
4 | 4.68 | B2
5 | 11.2 | B3
6 | 0.012 | B4
7 | 14 | B5
8 | 10.9 | B6
9 | 12.1 | B7
10 | 7.9 | B8
11 | 15.2 | B9
12 | 0.072 | B10
13 | 11.3 | B11
14 | 14 | B12
15 | 9.47 | B13
16 | 14.5 | B14
17 | 9.64 | B15
18 | 14.8 | B16
19 | 10.9 | B17
20 | 7.99 | B18
21 | 12.6 | B19
22 | 12.1 | B20
23 | 38.4 | B21
24 | 10.5 | B22
25 | 2.13 | B23
26 | 7.87 | B24

Row | Ki [µM] | Molecule
27 | 5.39 | B25
28 | 7.32 | B26
29 | 0.331 | B27
30 | 12.6 | B28
31 | 0.027 | B29
32 | 11.4 | B30
33 | 0.294 | B31
34 | 118 | B32
35 | 7.35 | B33
36 | 12.1 | B34
37 | 10.5 | B35
38 | 21.7 | B36
39 | 5.02 | B37
40 | 4.18 | B38
41 | 8.46 | B39
42 | 8.95 | B40
43 | 13.2 | B41
44 | 1.47 | B42
45 | 14.8 | B43
46 | 0.029 | B44
47 | 10.6 | B45
48 | 5.56 | B46
49 | 13 | B47

What follows are molecules tested against T2, PBP3 (E. coli) (assay: Fluorescence polarisation competition study using BCY12820 as tracer). Settings: competition with BCY12820 as tracer.
Assay type: binding
Protocol: Fluorescence polarisation competition was carried out using a BODIPY labelled Penicillin tracer and unlabelled peptides, for competition to an unmodified PBP protein. Polarisation was measured using a PHERAstar FS by BMG Labtech fitted with a FP 485 520 520 optic module.
Fluorescent BODIPY labelled penicillin at 5 mM in DMSO were diluted to 6.25 nM in binding buffer (10 mM HEPES, pH8, 300 mM NaCl, 2% glycerol). Unmodified PBP were diluted to 2 μM in binding buffer. A two-fold dilution series of unmodified peptide was prepared across 12 wells in binding buffer, with the highest final well concentration being 60 μM, and the lowest concentration being […]. 5 μl of the unmodified peptide dilution series or Carbenicillin were added to 12 wells of a 384-Well NBS™ Low Volume Microplate (Fisher Scientific). 10 μl diluted fluorescent BODIPY labelled penicillin (6.25 nM) were then added to the 12 wells containing the unmodified peptide dilutions. 10 μl of unmodified PBP (2 μM) were then added to the 12 wells containing unmodified peptide and fluorescent BODIPY labelled penicillin to bring the total volume to 25 μl, and the final concentration of Fluorescent BODIPY labelled penicillin to 2.5 nM and unmodified PBP to 800 nM.
A control well lacking unmodified peptide was prepared with a final fluorescent BODIPY labelled penicillin concentration of 2.5 nM and a final concentration of unmodified PBP of 800 nM to a final volume of 25 μl in binding buffer. A second control well lacking unmodified peptide and unmodified PBP was prepared with a final fluorescent BODIPY labelled penicillin concentration of 2.5 nM to a final volume of 25 μl in binding buffer.
Fluorescence polarisation was measured every 5 minutes for a period of one hour at room temperature. The gain and focal height were optimised using the control well lacking unmodified peptide and unmodified PBP. Wells were excited at 485 nm, and emission detection was set at 520 nm.
Data were analysed in GraphPad software to derive values for the inhibition constant. Experiments were repeated at least three times.
A further fluorescence polarisation competition study was carried out using BCY12820 as a tracer and the results are shown in Table 3: […]

Row | Molecule | Ki [µM]
50 | A-(SEQ ID NO: 8)-A [BCY13419] | 0.04
51 | [FI]-G-[Sar5]-A-(SEQ ID NO: 1)-A [BCY12820] | 0.005
52 | A-(SEQ ID NO: 12)-A [BCY13424] | 0.025
53 | A-(SEQ ID NO: 40)-A [BCY13953] | 38.4
54 | A-(SEQ ID NO: 39)-A [BCY13952] | 118
